# Earlier results, collected in patent US20070212428A1, “METHODS AND COMPOSITIONS FOR TREATING MOOD DISORDER” (MOOD MANAGEMENT SCIENCES, INC., priority 2004, published 2007).
# Conditions: cited from earlier work
substance,measurement,setting,value
1-(aminoethyl)cyclohexaneacetic acid [gabapentin],bioavailability,900 mg/day given in 3 divided doses,approximately 60%
same,bioavailability,1200 mg/day given in 3 divided doses,~47%
same,bioavailability,2400 mg/day given in 3 divided doses,~34%
same,bioavailability,3600 mg/day given in 3 divided doses,~33%
same,bioavailability,4800 mg/day given in 3 divided doses,~27%

# Where two headings read alike, the source gives them in different places.
